Results published in ChEMBL document CHEMBL1131530, “Synthesis and biological activities of tricyclic conformationally restricted tetrahydropyrido annulated furo[2,3-d]pyrimidines as inhibitors of dihydrofolate reductases” (J Med Chem, 1998).
pIC50: −log10 of the molar value.

Target: T1, Dihydrofolate reductase (Pneumocystis carinii, UniProt P16184)
T1 sequence (P16184 whole entry): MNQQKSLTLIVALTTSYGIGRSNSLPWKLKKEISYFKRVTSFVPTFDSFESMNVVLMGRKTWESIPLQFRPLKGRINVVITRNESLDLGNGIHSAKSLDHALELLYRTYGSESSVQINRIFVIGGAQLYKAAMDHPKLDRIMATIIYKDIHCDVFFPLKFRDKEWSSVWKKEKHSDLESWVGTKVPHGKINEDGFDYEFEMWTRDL

## Nc1nc(N)c2c3c(oc2n1)CN(Cc1ccc(C(=O)N[C@@H](CCC(=O)O)C(=O)O)cc1)CC3
  pIC50: 4.96
